# Ab-95 light chain CDR variants: yeast mating affinities

The target is the same throughout: PDVDLGDISGINAS, from the HR2 region of SARS-CoV-2 spike.

Parent scFv Ab-95: VH joined to VL by a (GGGGS)3 linker. Changes lie in the light chain CDRs alone.
VH: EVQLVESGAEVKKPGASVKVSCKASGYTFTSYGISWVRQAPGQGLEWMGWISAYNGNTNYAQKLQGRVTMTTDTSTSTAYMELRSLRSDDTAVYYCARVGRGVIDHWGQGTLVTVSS
VL: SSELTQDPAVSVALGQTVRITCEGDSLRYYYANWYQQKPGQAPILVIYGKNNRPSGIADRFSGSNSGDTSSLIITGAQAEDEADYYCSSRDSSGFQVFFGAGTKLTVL

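The parent was found by panning a naive human phage display library on the peptide. Variants in AAYL52 differ from the parent at up to three CDR positions; double and triple changes were sampled at random. In AlphaSeq, yeast of one mating type display the scFv and yeast of the other type display the target. After mating in shaken culture at 30 °C for 16 h, diploids were selected and their barcode pairs sequenced. Scores were corrected for input abundance and mapped to Kd with protein pairs of known affinity run in the same pool. The assay was run in three technical replicates.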

Substitutions are numbered in sequence along the VL above, starting at 1 (not Kabat). Affinities are written as log10 Kd with Kd in nM; a lower number is a better binder. A mean of the replicates is given; it leaves out those without a signal. An entry "nd" has no value in the source: the pair was not observed among the diploids in any replicate. This suggests poor binding but is not conclusive. Empty control strains, which show no peptide, gave a signal in 28% of pairings with library AAYL52; the median was 3.91 and 95% of these signals were weaker than 2.90. No background was subtracted. For each scFv, signals with the empty controls are counted beside the result.

| changes | log10 Kd (nM), mean | seen in | control signals |
|---|---|---|---|
| R28Y+N33S+S89V | 3.89 | 1 of 3 | 2 of 9 |
| G49W+R90F+S93W | 4.23 | 1 of 3 | 1 of 9 |
| Y30Q+Y31N+S92A | 0.28 | 3 of 3 | 2 of 9 |
| S26P+Y30N+P54V | -0.04 | 3 of 3 | 5 of 9 |
| R28H+R53A+P54T | 4.60 | 1 of 3 | 1 of 9 |
| A32G+S93W+G94P | 3.59 | 3 of 3 | 1 of 9 |
| D25Q+N52K | 3.09 | 3 of 3 | 2 of 9 |
| N51K+S88K+G94I | nd | 0 of 3 | 1 of 9 |
| S26V+S55D+F95D | 3.35 | 2 of 3 | 3 of 9 |
| E23P+R28P | 2.58 | 3 of 3 | 2 of 9 |
| G24H+S55E+V97N | 2.64 | 3 of 3 | 4 of 9 |
| R28L+K50C+F98A | 3.22 | 1 of 3 | 0 of 9 |
| L27K+N52Q | 4.92 | 2 of 3 | 4 of 9 |
| A32N+G49R+S93V | 4.04 | 1 of 3 | 1 of 9 |
| N33V+S89H+R90H | nd | 0 of 3 | 7 of 9 |
| G24W+G94Y+F98S | 4.84 | 3 of 3 | 5 of 9 |
| G24L+S93C+F98M | nd | 0 of 3 | 0 of 9 |
| D25K+S55H+G94D | 2.77 | 3 of 3 | 1 of 9 |
| E23P+R53D+S93Q | nd | 0 of 3 | 2 of 9 |
| L27Q+N52S+Q96M | 3.80 | 2 of 3 | 6 of 9 |
| S26H+R53W+G94E | nd | 0 of 3 | 2 of 9 |
| R53N+S55M+S92G | 3.94 | 2 of 3 | 5 of 9 |
| R53T+S55R+S93V | 4.05 | 1 of 3 | 4 of 9 |
| N33V+N51Y+S92N | nd | 0 of 3 | 0 of 9 |
| R28S+G94C+F98K | nd | 0 of 3 | 4 of 9 |

Continued, with the values leading:

| log10 Kd (nM), mean | seen in | control signals | changes |
|---|---|---|---|
| 3.78 | 1 of 3 | 1 of 9 | G24W+P54R+F98V |
| 3.28 | 3 of 3 | 0 of 9 | D25M+K50R+S89H |
| 4.81 | 2 of 3 | 2 of 9 | E23H+D25C+S26K |
| 3.71 | 1 of 3 | 2 of 9 | S26N+P54R+S88T |
| 4.01 | 2 of 3 | 4 of 9 | G49C+S88D+R90D |
| 4.21 | 2 of 3 | 2 of 9 | G49M+P54N+V97D |
| nd | 0 of 3 | 1 of 9 | S26F+R28F+G49M |
| nd | 0 of 3 | 3 of 9 | G49I+V97A+F98T |
| 1.14 | 3 of 3 | 5 of 9 | E23R+N52E |
| 3.07 | 3 of 3 | 1 of 9 | E23Q+S88V+F98Q |
| 4.66 | 3 of 3 | 4 of 9 | S26E+S55V+G94L |
| 4.11 | 2 of 3 | 3 of 9 | Y29R+Y31I+P54N |
| 3.59 | 1 of 3 | 0 of 9 | A32D+S89K+G94M |
| nd | 0 of 3 | 2 of 9 | G49Y+F95P |
| 4.62 | 2 of 3 | 3 of 9 | L27R+N33V+F98T |
| 3.34 | 3 of 3 | 4 of 9 | N51A+G94P+F95E |
| nd | 0 of 3 | 1 of 9 | R28W+Y29M+V97K |
| 3.30 | 3 of 3 | 2 of 9 | Y29R+R53L+Q96E |
| nd | 0 of 3 | 0 of 9 | G49T+R90N+S93E |
| 2.68 | 2 of 3 | 1 of 9 | D25H+S93D+G94R |
| nd | 0 of 3 | 5 of 9 | G24Y+S89H+D91G |
| 2.82 | 3 of 3 | 4 of 9 | R28G+S89W+S93M |
| 3.20 | 2 of 3 | 0 of 9 | S26V+S55W+G94Q |
| 3.20 | 3 of 3 | 4 of 9 | G24H+F95S+V97Q |
| 1.36 | 3 of 3 | 4 of 9 | R28G+Y31N+S92N |
| 3.36 | 1 of 3 | 2 of 9 | L27K+R53N+S92F |

The closing 4 entries, repeated:

| changes | log10 Kd (nM), mean | seen in | control signals |
|---|---|---|---|
| S26V+S55W+G94Q | 3.20 | 2 of 3 | 0 of 9 |
| G24H+F95S+V97Q | 3.20 | 3 of 3 | 4 of 9 |
| R28G+Y31N+S92N | 1.36 | 3 of 3 | 4 of 9 |
| L27K+R53N+S92F | 3.36 | 1 of 3 | 2 of 9 |

Values reported by Engelhart et al. 2022, doi:10.1038/s41597-022-01779-4 (FLAb copy).